Test results published in PubChem BioAssay AID2642 (Johns Hopkins Ion Channel Center, 2010).
The list shows a part of the results, in another mix than the full data. Activity calls are given as the source filed them.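 How the source made its calls: active means compounds whose thallium flux B-score, printed positive for inhibition, exceeds three library SD while starting fluorescence stays within three; inactive means the rest.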

Sequences of proteins named here, by UniProt entry; tags and fusion partners are left off.
UniProt P51787, whole entry: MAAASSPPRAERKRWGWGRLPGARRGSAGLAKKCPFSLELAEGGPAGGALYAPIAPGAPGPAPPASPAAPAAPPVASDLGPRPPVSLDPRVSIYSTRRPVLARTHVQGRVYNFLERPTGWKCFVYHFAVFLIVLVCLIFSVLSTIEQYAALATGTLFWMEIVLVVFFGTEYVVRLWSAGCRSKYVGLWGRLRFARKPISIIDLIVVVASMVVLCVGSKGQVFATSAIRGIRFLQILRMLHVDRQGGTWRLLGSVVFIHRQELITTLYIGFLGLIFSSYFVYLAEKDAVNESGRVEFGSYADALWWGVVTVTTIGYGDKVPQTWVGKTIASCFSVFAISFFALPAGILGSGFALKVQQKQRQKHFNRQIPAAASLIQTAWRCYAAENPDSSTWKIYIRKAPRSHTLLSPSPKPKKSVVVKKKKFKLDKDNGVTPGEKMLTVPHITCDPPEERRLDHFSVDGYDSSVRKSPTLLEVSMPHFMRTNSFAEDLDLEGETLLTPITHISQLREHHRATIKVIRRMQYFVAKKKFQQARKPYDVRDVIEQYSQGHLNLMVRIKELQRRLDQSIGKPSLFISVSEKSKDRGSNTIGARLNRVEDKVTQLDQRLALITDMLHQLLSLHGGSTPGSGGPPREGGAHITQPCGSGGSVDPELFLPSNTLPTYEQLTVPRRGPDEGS

What follows are compounds tested against Potassium voltage-gated channel subfamily KQT member 1 (Homo sapiens) (UniProt P51787) (assay: inhibitors of human KCNQ1 channel, primary screen, cell-based, thallium flux, high-throughput (AID 2642;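 further: channel opened by potassium depolarization with thallium stimulus after 20 min compound exposure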)). Conditions: CHO-K1 KCNQ1, FluxOR thallium flux fluorescence, at 10 µM; hits give high values.
In the case of `CC1CCC(C(C)C)C(OP(=O)(Nc2ccccn2)c2ccccc2)C1` (stereo not drawn), the outcome is reported as “inactive”. With `Cc1ccc(C(=O)OC2CN3CCC2CC3)cc1` (stereo not drawn) the outcome was “inactive”. For `Cc1nn(-c2ccccc2)c2c1P(=O)(N1CCOCC1)N(C)C(c1ccccc1)=N2` (stereo not drawn), the outcome was “inactive”. In the case of `COc1cc(C2NCCC3(OCCO3)C2(C)C)cc(OC)c1OC.O=[N+]([O-])c1cc([N+](=O)[O-])c(O)c([N+](=O)[O-])c1` (stereo not drawn), the outcome is reported as “inactive”. With `CCOC(=O)C(CC)C1=NC(C)(C)Cc2ccccc21.O=[N+]([O-])c1cc([N+](=O)[O-])c(O)c([N+](=O)[O-])c1` (stereo not drawn) the outcome was “inactive”. `CN(C)C1(CNC(=O)c2ccc(S(C)(=O)=O)cc2)CCCCC1` was tested, and the outcome was “inactive”. For `O=[N+]([O-])c1cc([N+](=O)[O-])c(Nc2nnnn2CCO)c([N+](=O)[O-])c1`, the outcome was “inactive”. With `O=C(/C=C/c1ccccc1)OC1CN2CCC1CC2` (stereo not drawn) the outcome was “inactive”. `COc1ccccc1OP(C)(=O)Nc1c(C)cccc1C` (stereo not drawn) was tested, and the outcome was “inactive”. With `CN1CCCCC1COC(=O)C1(O)c2ccccc2CCc2ccccc21` (stereo not drawn) the outcome was “inactive”. In the case of `O=P1(Nc2ncccn2)COc2ccccc2OC1`, the outcome is reported as “inactive”. For `CCCOc1ccc(NP(C)(=O)Oc2ccc(Cl)cc2)cc1` (stereo not drawn), the outcome was “inactive”. With `CP(=O)(Nc1ccc(SC(F)(F)F)cc1)Oc1ccccc1` (stereo not drawn) the outcome was “inactive”. `Nc1cccc([As](=O)(O)c2ccccc2)c1` was tested, and the outcome was “inactive”. In the case of `O=[As](O)(c1cccs1)c1cccs1`, the outcome is reported as “inactive”. For `Cc1ccc(OCC(=O)OC2CN3CCC2CC3)cc1` (stereo not drawn), the outcome was “inactive”. With `O=P1(Nc2ccc(Br)cn2)COc2ccccc2OC1` the outcome was “inactive”. In the case of `O=[N+]([O-])c1cc([N+](=O)[O-])c(-n2nnc3ccccc32)c([N+](=O)[O-])c1`, the outcome is reported as “inactive”. `CCOP(=O)(NC(=NC(C)c1ccccc1)NC(C)c1ccccc1)OCC` (stereo not drawn) was tested, and the outcome was “inactive”. In the case of `O=P1(Nc2ccccn2)COc2ccccc2OC1`, the outcome is reported as “inactive”. For `CCOP(=O)(Nc1ccc(C)cn1)OCC`, the outcome was “inactive”. In the case of `CN(CCCl)Cc1cc(Cl)c(NC2=NCCN2)c(Cl)c1`, the outcome is reported as “inactive”. For `CC(C)(C)C(=O)NC(Sc1ncccn1)C(Cl)(Cl)Cl` (stereo not drawn), the outcome was “inactive”. For `Clc1n[nH]nc1-c1nn[nH][15n]1`, the outcome was “inactive”. `O=[N+]([O-])c1cc([N+](=O)[O-])c(-c2cnn(-c3ccccc3)c2)c([N+](=O)[O-])c1` was tested, and the outcome was “inactive”. `COc1ccccc1CNC(=O)COC(=O)C(O)(c1ccccc1)c1ccccc1` was tested, and the outcome was “inactive”. In the case of `CC(C)/C=N\N=C(\N)N[N+](=O)[O-]`, the outcome is reported as “inactive”. With `CN(C(=O)Cc1ccc(Cl)c(Cl)c1)[C@@H]1CCCC[C@H]1N1CCCC1` the outcome was “inactive”. In the case of `CC1(CBr)Cn2c(nc3ccccc3c2=O)S1` (stereo not drawn), the outcome is reported as “inactive”. In the case of `O=[As](O)(c1ccccc1Br)c1ccccc1Br`, the outcome is reported as “inactive”. In the case of `O=C(OC1CN2CCC1CC2)c1ccc(Cl)cc1` (stereo not drawn), the outcome is reported as “inactive”. `CS(=O)(=O)c1ccc(Cl)c(NC(=O)COC(=O)C(O)(c2ccccc2)c2ccccc2)c1` was tested, and the outcome was “inactive”. `COc1ccccc1OP(C)(=O)Nc1cccc(Br)c1` (stereo not drawn) was tested, and the outcome was “inactive”. `O=[As](O)(O)c1cccnc1` was tested, and the outcome was “inactive”. `Cc1cc(C)cc(OP(C)(=O)Nc2ccc(C)cc2C)c1` (stereo not drawn) was tested, and the outcome was “inactive”. For `Cc1cccc(OCC(=O)OC2CN3CCC2CC3)c1` (stereo not drawn), the outcome was “inactive”. `O=[As](O)(c1cccc(O)c1)c1cccc(O)c1` was tested, and the outcome was “inactive”. For `CCOC(=O)c1ccc(NP(C)(=O)Oc2cc(C)cc(C)c2)cc1` (stereo not drawn), the outcome was “inactive”. For `Cc1ccc(NCCc2c([N+](=O)[O-])cc([N+](=O)[O-])cc2[N+](=O)[O-])cc1`, the outcome was “inactive”. `Cc1cc(C)cc(OP(C)(=O)Nc2ccccn2)c1` (stereo not drawn) was tested, and the outcome was “inactive”. In the case of `CP(=O)(Nc1cccc(Br)c1)Oc1ccccc1` (stereo not drawn), the outcome is reported as “inactive”. `Cc1ccc(C)c(NP(C)(=O)Oc2ccccc2)c1` (stereo not drawn) was tested, and the outcome was “inactive”. In the case of `CCCOP(=S)(Nc1nc(N)cc(=O)[nH]1)OCCC`, the outcome is reported as “inactive”. With `CCOP(=O)(Nc1cccc2ccccc12)OCC` the outcome was “inactive”. With `O=P(Nc1nccs1)(Oc1ccccc1)Oc1ccccc1` the outcome was “inactive”. For `O=P(Nc1nccs1)(c1ccccc1)c1nc2ccccc2s1` (stereo not drawn), the outcome was “inactive”. With `CCOP1(=S)c2c(C)nn(CCC#N)c2N=C(c2ccccc2F)N1C` (stereo not drawn) the outcome was “inactive”. `O=C(O)c1cccc(Nc2c([N+](=O)[O-])cc([N+](=O)[O-])cc2[N+](=O)[O-])c1` was tested, and the outcome was “inactive”. `CS(=O)(=O)c1cc([N+](=O)[O-])c2no[n+]([O-])c2c1` was tested, and the outcome was “inactive”. With `Nc1ccccc1[As](=O)(O)c1ccccc1` the outcome was “inactive”. `O=C(O)COc1ccc([As](=O)(O)O)cc1[N+](=O)[O-]` was tested, and the outcome was “inactive”. For `NC(=O)Nc1ccc([As](=O)(O)O)cc1`, the outcome was “inactive”. `CN(C(=O)Cc1ccccc1)[C@@H]1CC[C@]2(CCCO2)C[C@H]1N1CCCC1` was tested, and the outcome was “inactive”. For `CCOP1(=S)c2c(C)nn(CCC#N)c2N=C(c2ccc(F)cc2)N1C` (stereo not drawn), the outcome was “inactive”. In the case of `N#CCCN(C(=O)COC(=O)C(O)(c1ccccc1)c1ccccc1)c1ccc(F)cc1`, the outcome is reported as “inactive”. For `CC1=NCCc2c1[nH]c1ccccc21.O=[N+]([O-])c1cc([N+](=O)[O-])c(O)c([N+](=O)[O-])c1`, the outcome was “inactive”. In the case of `CN(C(=O)Cc1ccc(Cl)c(Cl)c1)[C@H]1CC[C@@]2(CCCO2)C[C@@H]1N1CCCC1`, the outcome is reported as “inactive”. `O=[N+]([O-])c1ccc2c(c1)nnn2O` was tested, and the outcome was “inactive”. `O=[N+]([O-])c1cc([N+](=O)[O-])c(Nc2cccnc2)c([N+](=O)[O-])c1` was tested, and the B-score was active: 7. With `O=[As](O)(c1ccc(O)cc1)c1ccccc1O` the outcome was “inactive”. In the case of `C[As](=O)(O)c1cccc(C(=O)O)c1`, the outcome is reported as “inactive”. In the case of `Cc1cccc(C)c1OP(C)(N)=O` (stereo not drawn), the outcome is reported as “inactive”. With `Cc1ccc(OP(=O)(Nc2ccc([N+](=O)[O-])cn2)Oc2ccc(C)cc2)cc1` the outcome was “inactive”. For `CC(C)(C)c1ccc(OP(C)(=O)Nc2ccc(SC(F)(F)F)cc2)cc1` (stereo not drawn), the outcome was “inactive”. In the case of `O=[N+]([O-])c1ccc2c(c1)C=Nc1ccccc1O2`, the outcome is reported as “inactive”. In the case of `Cc1ccc2nc3c(c(C)c2c1)CC(C(Cl)Cl)S3` (stereo not drawn), the outcome is reported as “inactive”. For `ClCCSc1nnc(-c2cccnc2)o1`, the outcome was “inactive”. For `CCOC(=O)c1ccc(NP(C)(=O)Oc2ccccc2)cc1` (stereo not drawn), the outcome was “inactive”. With `CC(C)c1ccc(OP(=O)(Nc2ccccn2)Oc2ccccc2F)cc1` (stereo not drawn) the outcome was “inactive”. For `Cc1ccc(NP(C)(=O)Oc2ccccc2)c(C)c1` (stereo not drawn), the outcome was “inactive”. `COc1ccccc1OP(C)(=O)Nc1ccc(C)cc1` (stereo not drawn) was tested, and the outcome was “inactive”. With `COc1ccc(OP(C)(=O)Nc2cccc(F)c2)cc1` (stereo not drawn) the outcome was “inactive”. `O=[N+]([O-])c1cc([N+](=O)[O-])c(-c2ccn[nH]2)s1` was tested, and the outcome was “inactive”.
